ChEMBL document CHEMBL1123259, “Probes for narcotic receptor mediated phenomena. 13. Potential irreversible narcotic antagonist-based ligands derived from 6,14-endo-ethenotetrahydronororipavine with 7-(methoxyfumaroyl)amino, (bromoacetyl)amino, or isothiocyanate electrophiles: chemistry, biochemistry, and pharmacology” (1986)

Experiments:
Mus musculus [1] = test: In vivo antagonist/agonist nature after subcutaneous administration to mice using tail flick (TF) antagonist assay vs. morphine
Mus musculus [2] = test: In vivo antagonist/agonist nature after subcutaneous administration using hot plate assay
Mus musculus [3] = test: In vivo antagonist nature after subcutaneous administration at 10 mg/Kg to mice using tail flick (TF) antagonist assay vs. morphine; parameters: scale not given: the % may be the effect or the level left
Mus musculus [4] = test: In vivo antagonist nature after subcutaneous administration at 3 mg/Kg to mice using tail flick (TF) antagonist assay vs. morphine; parameters: scale not given: the % may be the effect or the level left
Mus musculus [5] = test: In vivo antagonist nature after subcutaneous administration at 30 mg/Kg to mice using tail flick (TF) antagonist assay vs. morphine; parameters: scale not given: the % may be the effect or the level left

| SMILES | ED50 (Mus musculus [1]) [mg/kg] | other results |
| --- | --- | --- |
| C=CCN1CC[C@]23c4c5ccc(O)c4O[C@H]2C2(OC)C=C[C@@]3(C[C@@H]2NC(=O)CBr)[C@H]1C5.O=C(O)C(=O)O | 2.1 |  |
| C=CCN1CC[C@]23c4c5ccc(O)c4O[C@H]2C2(OC)C=C[C@@]3(C[C@@H]2N)[C@H]1C5.O=C(O)C(=O)O |  | ED50 (Mus musculus [2]): 7.6 mg/kg |
| C=CCN1CC[C@]23c4c5ccc(O)c4O[C@H]2C2(OC)C=C[C@@]3(C[C@@H]2N=S)[C@H]1C5.O=C(O)C(=O)O | 0.6 |  |
| CO[C@]12C=C[C@@]3(C[C@@H]1N)[C@H]1Cc4ccc(O)c5c4[C@@]3(CCN1CC1CC1)[C@H]2O5 | 30 | Effect (Mus musculus [3]): 30%; Effect (Mus musculus [4]): 5%; Effect (Mus musculus [5]): 52% |
| CO[C@]12C=C[C@@]3(C[C@@H]1NC(=O)CBr)[C@H]1Cc4ccc(O)c5c4[C@@]3(CCN1CC1CC1)[C@H]2O5 | 0.4 |  |
| C=CCN1CC[C@]23c4c5ccc(O)c4O[C@H]2[C@@H](O)C=C[C@H]3[C@H]1C5.Cl | 0.8 | ED50 (Mus musculus [2]): 9.9 mg/kg |
| C=CCN1CC[C@]23c4c5ccc(O)c4O[C@H]2C2(OC)C=C[C@@]3(C[C@@H]2NC(=O)/C=C/C(=O)OC)[C@H]1C5.O=C(O)C(=O)O | 6.3 |  |
| COC(=O)/C=C/C(=O)N[C@H]1C[C@@]23C=CC1(OC)[C@@H]1Oc4c(O)ccc5c4[C@@]12CCN(CC1CC1)[C@@H]3C5.O=C(O)C(=O)O | 1.5 |  |
| COC12C=C[C@@]3(C[C@@H]1N=S)[C@H]1Cc4ccc(O)c5c4[C@@]3(CCN1CC1CC1)[C@H]2O5.O=C(O)C(=O)O | 0.2 |  |
